Our source for the inhibition values is ChEMBL document CHEMBL1124043, “Pyrido[2,1-b]quinazolinecarboxamide derivatives as platelet activating factor antagonists” (J Med Chem, 1988).

This assay concerns Platelet-activating factor receptor (Canis familiaris). Put plainly: Percent inhibition of binding of platelet activating factor (PAF) to dog platelets using [3H]PAF as radioligand at a concentration of 1 uM. To be noted: Canis lupus familiaris.

As usually defined, the inhibition is the share of the control response that was lost under treatment.

In the case of `Cc1cc2nc3ccc(C(=O)NCCCCCC[n+]4ccccc4)cn3c(=O)c2cc1C`, the inhibition came out at 9%.
As for `CC(C)c1ccc2nc3ccc(C(=O)OCCCCc4cccnc4)cn3c(=O)c2c1`, the figure is 16%.
